The entries are a selection whose mix differs from that of the whole data set. The source made the active and inactive calls.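 How the source made its calls: active means visual image review flags a hit and inhibition of aggregation exceeds 20%; inconclusive means visual hit but inhibition at or below 20%; inactive means no hit on visual image review.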
Experiment: reduction of polyQ htt aggregates in cells – imaging, exon1htt(103Q)mCFP cells, high-content imaging, primary screen (AID 483);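 further: compound exposure lasted 3 days before fixation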
Settings: exon1htt(103Q)mCFP cell line, aggregate imaging; at 2 µM; hits give high values

Q: For Cc1ccc(C)c(NP(C)(=O)Oc2ccccc2)c1 (stereo not given), which inhibition of aggregation is on record?
A: inactive: -25.4%

Q: Which inhibition of aggregation does the source give for CP(=S)(Nn1cnnc1)Oc1ccccc1 (stereo not given) here?
A: inactive: 10.9%

Q: Which inhibition of aggregation does the source give for CP(=O)(Nc1ccccn1)Oc1ccccc1 (stereo not given) here?
A: inactive: 17.3%

Q: For CN(C)CCOC(=O)C(O)(c1ccccc1)C1CCCCC1 (stereo not given), which inhibition of aggregation is on record?
A: inactive: -4.8%

Q: Which inhibition of aggregation does the source give for CP(=O)(Nc1ccc2c(c1)OCCO2)Oc1ccccc1 (stereo not given) here?
A: inactive: -9.8%

Source: PubChem BioAssay AID483 (Columbia University Molecular Screening Center, 2006)
